Measurements as given in BindingDB's records for doi:10.1016/j.bioorg.2014.11.005 (Charles University In Prague, 2015).

Chains of the proteins cited; added tags and fusions are not shown.
UniProt Q9N1N9, whole entry: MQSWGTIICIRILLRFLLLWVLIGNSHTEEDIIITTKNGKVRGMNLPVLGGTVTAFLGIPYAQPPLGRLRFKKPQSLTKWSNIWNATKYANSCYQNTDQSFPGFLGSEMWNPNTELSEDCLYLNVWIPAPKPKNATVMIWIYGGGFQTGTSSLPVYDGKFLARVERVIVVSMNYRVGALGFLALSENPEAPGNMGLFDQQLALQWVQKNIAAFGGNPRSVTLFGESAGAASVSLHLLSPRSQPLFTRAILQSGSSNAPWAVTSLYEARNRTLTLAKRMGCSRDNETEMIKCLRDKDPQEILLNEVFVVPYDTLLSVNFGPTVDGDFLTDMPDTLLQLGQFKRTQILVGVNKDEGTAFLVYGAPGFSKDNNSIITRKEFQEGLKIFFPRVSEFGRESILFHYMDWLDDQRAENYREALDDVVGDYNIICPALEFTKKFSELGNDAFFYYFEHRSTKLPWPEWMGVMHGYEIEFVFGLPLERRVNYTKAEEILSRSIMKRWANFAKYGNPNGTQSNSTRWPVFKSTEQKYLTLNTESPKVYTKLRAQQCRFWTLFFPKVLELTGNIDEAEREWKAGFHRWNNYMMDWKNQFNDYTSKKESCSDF

Target: Carboxylic ester hydrolase (Equus caballus, UniProt Q9N1N9)
Assay: Ellman's Method

**Q.** With `CCN(C)C(=O)Oc1cccc([C@H](C)N(C)C)c1` [3-[(1S)-1-(dimethylamino)ethyl]phenyl N-ethyl-N-methylcarbamate] as the compound, how does the IC50 read?
**A.** The IC50 was 20 µM.
